Measurements published in ChEMBL document CHEMBL5131537 (J Med Chem, 2022).

Target: Human immunodeficiency virus type 1 reverse transcriptase (Human immunodeficiency virus 1, UniProt Q72547)

Cc1cc(C#N)cc(C)c1Oc1nc(Nc2ccc(C#N)cc2)nc(N)c1Br [ETRAVIRINE] showed an IC50 of 13 nM.
